Measurements published in patent publication US20230097753A1, “ALPHA-HYDROXYLATED FATTY-ACID METABOLITES, MEDICAL USES AND USE AS BIOMARKERS” (UNIVERSITAT DE LES ILLES BALEARS, priority 2020, published 2023).

What was measured:
U-251 MG glioma cells = test: Cell viability by violet crystal staining, 72 hours; type: cell-based, human; details: for IC50: 72 hours
Description: (§1) FIG. 14. Effect of 2OHOA sodium salt, OA and C17:1n-9 sodium salt on cell viability and proliferation of glioma cells. […] Viability was determined by violet crystal staining.
(§2) In order to evaluate the antiproliferative effect of C17:1n-9, its IC50, which corresponds to the amount of a compound needed to reduce cell viability in vitro by 50%, as well as its effect on the regulation of proteins involved in the mechanism of action of 2OHOA, were determined. […] Upon completion of treatment, IC50 was determined by violet crystal staining technique. […] The IC50 of 2OHOA was 1000 μM for non-tumor cells, MRC-5 and astrocytes.

U-118 MG glioma cells [1] = test: as above; type: cell-based, human; details: for IC50: 72 hours
Description: as §1, §2

U-118 MG glioma cells [2] = test: Cell survival by trypan blue vital exclusion staining, 2OHOA and oxythiamine; type: cell-based, human
U-251 MG = test: as above; type: cell-based, human
Description: FIG. 18. Effect of metabolite C17:1n-9 on the action of 2OHOA. […] Cell viability was determined by vital exclusion staining with trypan blue.
To study whether the metabolite C17:1n-9 can participate in the action of 2OHOA, the effect of pre-incubation with oxythiamine on cell survival and 2OHOA-regulated proteins was studied. To do this, the cell survival of different glioma and non-tumor cell lines treated with 2OHOA (400 μM, 72 hours) and pre-incubated or not with 2 mM […] (90 minutes) was analyzed by counting the cells with the vital exclusion stain with trypan blue. In addition, Western-blot 2OHOA-modulated proteins were studied. In glioma cells, a significant decrease in cell survival was observed after incubation with 2 mM oxythiamine for 72 hours.

SF-295 glioma cells = details: human, 24 h, 400 μM
U-118 MG glioma cells [3] = details: human, 24 h, 400 μM
[4] = test system: MRC-5 (human fibroblasts); test: Fatty acid composition by gas chromatography after treatment with 2OHOA; details: MRC-5, 2OHOA 400 μM for 24 hours

SMILES | IC50 of 2OHOA relative to that of metabolite C17:1n-9 (U-251 MG glioma cells) [times] | IC50 of 2OHOA relative to that of non-hydroxy analogue OA (U-251 MG glioma cells) [times] | IC50 (U-251 MG glioma cells; Homo sapiens) [µM] | IC50 of 2OHOA relative to that of metabolite C17:1n-9 (U-118 MG glioma cells [1]) [times] | IC50 of 2OHOA relative to that of non-hydroxy analogue OA (U-118 MG glioma cells [1]) [times] | IC50 (U-118 MG glioma cells [1]; Homo sapiens) [µM] | Cell death (U-118 MG glioma cells [2]; 2OHOA sodium salt 400 μM, 72 hours) [%] | Cell death (U-118 MG glioma cells [2]; 2OHOA sodium salt combined with 1 mM oxythiamine) [%] | Recovery in cell viability (U-118 MG glioma cells [2]; 2OHOA sodium salt combined with 1 mM oxythiamine vs 2OHOA alone) [%] | Cell death (U-118 MG glioma cells [2]; 2OHOA sodium salt combined with 2 mM oxythiamine) [%] | Recovery in cell viability (U-118 MG glioma cells [2]; 2OHOA sodium salt combined with 2 mM oxythiamine vs 2OHOA alone) [%] | Cell death (U-251 MG; 2OHOA 400 μM, 72 hours) [%] | Cell death (U-251 MG; 2OHOA combined with 2 mM oxythiamine) [%] | Recovery in cell viability (U-251 MG; 2OHOA combined with 2 mM oxythiamine vs 2OHOA alone) [%] | Level of the fatty acid in cells after treatment with 2OHOA (SF-295 glioma cells) [nmol/mg] | Amount of fatty acid in 2OHOA-treated cells (U-118 MG glioma cells [3]) [nmol/protein] | IC50 (U-251 MG glioma cells) [µM] | IC50 (U-118 MG glioma cells [1]) [µM] | Level of the fatty acid in cells after treatment with 2OHOA [4] [nmol/mg]
CCCCCCCC/C=C\CCCCCCC(O)C(=O)O (stereo not shown) [2OHOA, 2-hydroxyoleic acid] | 1.95 | 1.80 | 430 ± 9.67 | 1.90 | 1.92 | 433 ± 10.8 | 24.71±1.88 | 20.94±1.97 | 5 | 11.71±1.14 | 17.26 | 23.22±1.32 | 14.07±1.62 | 12 | 9.31 ± 1.44 | 18.98±0.42 |  |  | 
CCCCCCCC/C=C\CCCCCCC(=O)O [C17:1n-9, 8Z-heptadecenoic acid] |  |  |  |  |  |  |  |  |  |  |  |  |  |  |  |  | 220 ± 7.93 | 222 ± 9.09 | 14.00 ± 1.92
